# Reported boiling point values for industrial, environmental and drug-like chemicals

Values as listed in the OPERA 2.9 repository of K. Mansouri.

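The OPERA project collected these measurements from public sources as training and test data for property models. A listed value is a point estimate from one report or more. Method and conditions are not stated for these values. The measured form (salt, isomer or mixture) is not always the one drawn. Some upstream entries may be estimates or bounds without being marked so.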

The boiling point refers to atmospheric pressure (760 mmHg), by the definition of the set. "–" marks a cell with nothing listed here. The databases behind each value are named after "via".

| compound | name | boiling point (°C) | via |
|---|---|---|---|
| COC(F)(F)C(F)(F)F | Pentafluoromethoxyethane | 5.6 | ChemicalBook |
| CN(N=O)c1ccccc1 | N-Methyl-N-nitrosoaniline | 225 | PubChem |
| O=C(OOC(=O)C(F)(F)C(F)(F)C(F)F)C(F)(F)C(F)(F)C(F)F | Bis(2,2,3,3,4,4-hexafluoro-1-oxobutyl)peroxide | 40 | ChemicalBook |
| CC(Cl)C#N (racemic) | – | 121 | OCHEM |
| CC(CC#N)N1CC1 (configuration not stated) | 1-Aziridinepropanenitrile, .beta.-methyl- | 195.8 | eChemPortal |
| CCNP(=S)(OC)O/C(C)=C/C(=O)OC(C)C (stereo partly drawn) | Propetamphos | 87 | OCHEM |
| C#CCC1=C(C)C(OC(=O)C2C(C=C(C)C)C2(C)C)CC1=O (configuration not stated) | Prallethrin | 313.8 | OCHEM, PubChem |
| O=C(F)C1(F)OC1(F)F (configuration not stated) | 2,3,3-Trifluoro-2-oxiranecarbonyl fluoride | 16 | OCHEM |
| O=[N+]([O-])c1ccc(Nc2ccccc2)cc1 | 4-Nitro-N-phenylaniline | 343 | PubChem |
| CCOP(=S)(OCC)Oc1cnccn1 | Thionazin | 80 | OCHEM, PubChem |
| CN1CC[C@]23c4c5ccc(O)c4O[C@H]2C(=O)CC[C@H]3[C@H]1C5 | Hydromorphone | 305 | PubChem |
| CCOc1cc(Cl)c(CS(=O)(=O)C2=NOC(C)(C)C2)cc1Cl | Fenoxasulfone | 468 | OCHEM |
| CCCCOC(=O)COC(=O)c1ccccc1C(=O)OCCCC | – | 345 | PubChem |
| O=C(O)C(Br)Br | Dibromoacetic acid | 233 | PubChem |
| CNC(=O)/C=C(\C)OP(=O)(OC)OC | Monocrotophos | 125 | PubChem |
| COC[C@H](C)N(C(=O)CCl)c1c(C)csc1C | Dimethenamid-P | 280 | OCHEM, PubChem |
| O=C(C(F)(F)F)C(F)(C(F)(F)F)C(F)(F)F | 1,1,1,3,4,4,4-Heptafluoro-3-(trifluoromethyl)butan-2-one | 26.5 | eChemPortal |
| CC(Cl)OC(C)Cl (configuration not stated) | Bis(alpha-chloroethyl) ether | 116 | OCHEM |
| CN(C)c1ccc(C(=O)c2ccc(N(C)C)cc2)cc1 | Bis(4-(dimethylamino)phenyl)methanone | 360 | PubChem |
| COP(=O)(OC)OC(Br)C(Cl)(Cl)Br (configuration not stated) | Naled | 200 | PubChem |
| CCOC(F)(F)C(F)C(F)(F)F (configuration not stated) | Ethyl 2H-perfluoropropyl ether | 71 | ChemicalBook |

2 of these entries, quoted again:

| compound | name | boiling point (°C) | via |
|---|---|---|---|
| O=C(O)C(Br)Br | Dibromoacetic acid | 233 | PubChem |
| CCOc1cc(Cl)c(CS(=O)(=O)C2=NOC(C)(C)C2)cc1Cl | Fenoxasulfone | 468 | OCHEM |